Consider 1 substance from patent publication US6894049B1, “Platinum complexes as antitumor agents” (AnorMED, Inc., priority 2000, dated 2005).

What is called Aqueous Solubility is the dissolved amount per volume that the medium holds.

Data set [1] in a line: Aqueous solubility at ambient conditions. The class given is physicochemical.
Data set [2] can be described thus: Maximum tolerated dose in mice. It counts as in vivo.

With “cis-ammine(2-methylpyridine)dichloroplatinum(II) [reference compound]”, the “Aqueous Solubility” value in data set [1] came to 700 µg/mL. In data set [2], the “maximum tolerated dose (MTD)” value was found to be 40 mg/kg.
